Laboratory results published in US12077636B2, “Highly soluble tris-(2,3-epoxypropyl)-isocyanurate and method for producing same” (NISSAN CHEMICAL CORPORATION, priority 2013, dated 2024).

What was measured:
[1] = Solubility test (1 g sample, solvent needed for a homogeneous and clear solution at 25° C.); format: physicochemical; conditions: for mass of sample capable of being dissolved into 100 g of the solvent: Methyl ethyl ketone: per 100 g methyl ethyl ketone; for mass of sample capable of being dissolved into 100 g of the solvent: Toluene: per 100 g toluene; for mass of sample capable of being dissolved into 100 g of the solvent: Ethyl acetate: per 100 g ethyl acetate
Procedure: From this amount of solvent, the mass of each sample that was capable of being dissolved into 100 g of the solvent was calculated.

[2] = Solubility test (4 g sample, solvent needed for a homogeneous and clear solution at 25° C.); format: physicochemical; conditions: for mass of sample capable of being dissolved into 100 g of the solvent: PGME: per 100 g propylene glycol monomethyl ether; for mass of sample capable of being dissolved into 100 g of the solvent: PGMEA: per 100 g propylene glycol monomethyl ether acetate; for mass of sample capable of being dissolved into 100 g of the solvent: Acetone: per 100 g acetone; for mass of sample capable of being dissolved into 100 g of the solvent: Acetonitrile: per 100 g acetonitrile
Procedure: (Solubility Test) […] From this amount of solvent, the mass of each sample that was capable of being dissolved into 100 g of the solvent was calculated. In Table 3, PGME is propylene glycol monomethyl ether and PGMEA is propylene glycol monomethyl ether acetate.

Row | Structure (SMILES) | mass of sample capable of being dissolved into 100 g of the solvent: Methyl ethyl ketone [1] [g] | mass of sample capable of being dissolved into 100 g of the solvent: Toluene [1] [g] | mass of sample capable of being dissolved into 100 g of the solvent: Ethyl acetate [1] [g] | mass of sample capable of being dissolved into 100 g of the solvent: PGME [2] [g] | mass of sample capable of being dissolved into 100 g of the solvent: PGMEA [2] [g] | mass of sample capable of being dissolved into 100 g of the solvent: Acetone [2] [g] | mass of sample capable of being dissolved into 100 g of the solvent: Acetonitrile [2] [g]
1 | O=c1n(CC2CO2)c(=O)n(CC2CO2)c(=O)n1CC1CO1 (stereo not shown) [Example 1, tris-(2,3-epoxypropyl)-isocyanurate] | 6.8 | 1.8 |  |  |  |  | 
2 | O=c1n(CC2CO2)c(=O)n(CC2CO2)c(=O)n1CC1CO1 (stereo not shown) [Example 2, tris-(2,3-epoxypropyl)-isocyanurate] | 9.3 | 2.1 | 6.3 |  |  |  | 
3 | O=c1n(CC2CO2)c(=O)n(CC2CO2)c(=O)n1CC1CO1 (stereo not shown) [Example 3, tris-(2,3-epoxypropyl)-isocyanurate] | 9.0 | 2.0 | 6.1 |  |  |  | 
4 | O=c1n(CC2CO2)c(=O)n(CC2CO2)c(=O)n1CC1CO1 (stereo not shown) [Example 6, tris-(2,3-epoxypropyl)-isocyanurate] |  |  |  | 2.5 | 5.1 |  | 
5 | O=c1n(CC2CO2)c(=O)n(CC2CO2)c(=O)n1CC1CO1 (stereo not shown) [Example 10, tris-(2,3-epoxypropyl)-isocyanurate] |  |  |  |  |  | 24 | 71
6 | O=c1n(CC2CO2)c(=O)n(CC2CO2)c(=O)n1CC1CO1 (stereo not shown) [Synthesis Example 1, tris-(2,3-epoxypropyl)-isocyanurate] | 1.7 | 0.5 | 1.4 | 1.6 | 2.2 | 7.8 | 17
